Laboratory results reported in US20260263614A1, “ANTIBODY DRUG CONJUGATES THAT BIND CDCP1 AND USES THEREOF” (Pheon Therapeutics Ltd, priority 2022, published 2026).

Assay: S9 liver studies, summary for human and monkey
Conditions: DAR8 ADCs on a Trastuzumab backbone

Trastuzumab-DM1
Detected Metabolites in Liver Microsome S9 Studies: DM1
